# Reference: paper PMC6356585 (Viruses, 2018)
# Columns and labels:
# [1] = tested on: Vero cells; assay: Cell viability (CellTiter-Glo) of Vero cells; format: cell-based; details: 10 µM compound, 40 h, ± SEM, three independent trials
# [2] = tested on: C6/36 cells; format: cell-based, Ae. albopictus; details: 10 µM compound, 96 h, CellTiter-Glo; ± SEM, three independent trials
substance,measurement,setting,value
Penitrem A,Vero Viability,[1],78.3 ± 6.4% of untreated control
same,C6/36 Viability,[2],43 ± 8.1% of untreated control
